Experimental data from ChEMBL document CHEMBL3785084, “Rational modification of the lead molecule: Enhancement in the anticancer and dihydrofolate reductase inhibitory activity” (Bioorg Med Chem Lett, 2016).

Target: T1, Dihydrofolate reductase (Homo sapiens) (UniProt P00374)
T1 sequence (whole entry): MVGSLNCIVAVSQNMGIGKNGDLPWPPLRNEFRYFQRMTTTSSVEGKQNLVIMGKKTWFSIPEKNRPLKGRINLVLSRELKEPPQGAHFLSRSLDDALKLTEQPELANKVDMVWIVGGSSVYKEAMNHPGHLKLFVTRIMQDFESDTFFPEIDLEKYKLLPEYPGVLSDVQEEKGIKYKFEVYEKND

Work on `COc1cc(/C=C2\C(=O)Nc3ccccc32)cc(OC)c1O` yielded a Ka of 1.3 ×10⁷ /M.
